{"sequences": {"note": "Amino acid sequences for entries named in this document (tags omitted).", "UniProt P09874, whole entry": "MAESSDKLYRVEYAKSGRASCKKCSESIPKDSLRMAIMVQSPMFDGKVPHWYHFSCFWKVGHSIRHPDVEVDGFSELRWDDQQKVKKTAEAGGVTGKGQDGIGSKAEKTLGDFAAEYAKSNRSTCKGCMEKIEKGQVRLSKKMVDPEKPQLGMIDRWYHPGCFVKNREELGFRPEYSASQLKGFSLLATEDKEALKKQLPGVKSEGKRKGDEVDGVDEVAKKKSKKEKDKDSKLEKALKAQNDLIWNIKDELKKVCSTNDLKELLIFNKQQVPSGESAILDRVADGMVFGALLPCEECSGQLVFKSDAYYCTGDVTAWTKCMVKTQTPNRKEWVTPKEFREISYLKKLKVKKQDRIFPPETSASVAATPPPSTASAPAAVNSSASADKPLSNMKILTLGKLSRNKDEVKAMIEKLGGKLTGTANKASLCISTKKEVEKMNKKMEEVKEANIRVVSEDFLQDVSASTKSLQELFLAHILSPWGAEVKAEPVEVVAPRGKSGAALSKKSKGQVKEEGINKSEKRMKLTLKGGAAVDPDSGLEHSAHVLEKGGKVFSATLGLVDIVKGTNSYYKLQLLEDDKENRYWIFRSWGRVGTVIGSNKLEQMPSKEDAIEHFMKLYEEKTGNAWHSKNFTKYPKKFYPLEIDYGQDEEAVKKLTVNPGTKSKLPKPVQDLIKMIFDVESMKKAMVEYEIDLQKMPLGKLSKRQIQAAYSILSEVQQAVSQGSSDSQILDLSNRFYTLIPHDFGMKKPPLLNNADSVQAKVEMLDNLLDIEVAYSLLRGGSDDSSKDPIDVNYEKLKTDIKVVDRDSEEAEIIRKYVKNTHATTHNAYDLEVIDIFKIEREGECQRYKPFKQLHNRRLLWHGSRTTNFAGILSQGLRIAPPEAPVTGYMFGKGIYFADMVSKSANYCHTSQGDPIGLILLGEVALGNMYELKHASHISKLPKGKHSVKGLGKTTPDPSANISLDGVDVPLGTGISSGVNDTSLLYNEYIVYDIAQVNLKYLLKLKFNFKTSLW"}, "source": "patent US9598418B2", "about": "“Substituted phthalazin-1 (2H)-one derivatives as selective inhibitors of poly (ADP-ribose) polymerase-1” (CADILA HEALTHCARE LIMITED, priority 2012, dated 2017)", "target": "PARP-1 (Homo sapiens, UniProt P09874)", "test": "PARP-1 inhibitory activity, HT universal colorimetric PARP assay kit (Trevigen)", "details": "read-out: PARP-1 activity in vitro IC50; estimation as calculated from a 4 point dose response curve", "note": "pIC50: −log10 of the molar value."}
{"smiles": "CS(=O)(=O)n1ncc2c1CN(C(=O)c1cc(Cc3n[nH]c(=O)c4ccccc34)ccc1F)C2", "values": [{"measurement": "pIC50", "value": 7.52}]}
{"smiles": "O=C(c1cc(Cc2n[nH]c(=O)c3ccccc23)ccc1F)N1C[C@H]2CN3CCCC3[C@H]2C1", "note": "(some centres unmarked)", "values": [{"measurement": "pIC50", "value": 7.93}]}
